The test system of this data set is Caco-2 cell monolayers. Kind of data set: Insulin and HBP-insulin conjugates trans-epithelial transport. The following applies: for TEER before incubation / TEER after transport: three inserts; for TEER after transport: 60 μg/ml. The procedure:
The samples were washed again to eliminate uncoupled materials, and the conjugates were checked by SDS-Page electrophoresis analysis. […] 30 μg of each molecule was incubated on the Caco-2 cell monolayers.
Trans-epithelial transport experiments were carried out. […] The media of the upper and lower compartments were collected. […] For each condition, three inserts were used (triplicates).

One substance from US8003595B2, “Amino acid sequences facilitating penetration of a substance of interest into cells and/or cell nuclei” (Cellectis, priority 2000, dated 2011) can be followed below.

Values joined by “and” are separate entries in the source; they are usually repeats but may differ in a detail not shown here. Identical values can stand only once.

As for Insulin, the TEER before incubation (1 h group) is 458 Ω · cm^2 and 592 Ω · cm^2 and 445 Ω · cm^2; the TEER before incubation (4 h group) is 451 Ω · cm^2 and 606 Ω · cm^2 and 510 Ω · cm^2; the TEER before incubation (8 h group) is 442 Ω · cm^2 and 451 Ω · cm^2 and 498 Ω · cm^2. The TEER after transport is 478 Ω · cm^2 and 561 Ω · cm^2 and 425 Ω · cm^2 (1 h incubation); 324 Ω · cm^2 and 325 Ω · cm^2 and 305 Ω · cm^2 (4 h incubation); 151 Ω · cm^2 and 145 Ω · cm^2 (8 h incubation). Moreover, where the note is “conjugates: after one hour of transport”, the “quantity in the cell lysate, of the initial loading” value is reported as “approximately 0.004%”. Moreover, the “levels in the apical medium” value (during the whole experiment) is listed as “stayed stable”. In addition, the “amount remaining on the filters” value (filters on which Caco-2 cells were grown) was “only a small amount”.
